The numbers were not newly measured in patent publication US11826435B2, “Conduritol aziridine derivatives and uses thereof” (University of Saskatchewan, priority 2017, dated 2023), which cites them from elsewhere.

Chains of the proteins cited; added tags and fusions are not shown. Residues count along the entry.
UniProt P04062, 40-536 limits assumed: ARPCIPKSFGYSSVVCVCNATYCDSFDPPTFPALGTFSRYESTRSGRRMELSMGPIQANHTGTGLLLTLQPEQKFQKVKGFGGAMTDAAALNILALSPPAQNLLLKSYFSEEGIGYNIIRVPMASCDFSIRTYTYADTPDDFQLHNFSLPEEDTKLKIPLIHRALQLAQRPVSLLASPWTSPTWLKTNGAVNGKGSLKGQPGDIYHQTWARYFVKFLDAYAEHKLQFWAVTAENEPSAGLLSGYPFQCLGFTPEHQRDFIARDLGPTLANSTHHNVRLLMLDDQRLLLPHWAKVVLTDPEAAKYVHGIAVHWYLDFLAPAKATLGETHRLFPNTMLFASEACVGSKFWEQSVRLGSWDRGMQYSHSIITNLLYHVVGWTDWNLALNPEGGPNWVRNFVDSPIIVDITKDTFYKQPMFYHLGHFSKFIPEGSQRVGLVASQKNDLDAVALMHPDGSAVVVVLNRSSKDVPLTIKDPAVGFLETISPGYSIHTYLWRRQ

The target in the data set is GCase (Homo sapiens (Human), UniProt P04062). The note with it: reported data, cited from earlier work; for Ki / ki/Ki: inhibition of GCase; for ki: rate constant of inactivation of GCase.

`CCCCN1C2C(O)C(O)C(O)C(O)C21` (stereo not drawn): the Ki (as a rule, a measure of affinity in units of concentration, obtained from inhibition or displacement) was 2400 nM; the ki/Ki is given as 0.058 μM^−1/min^−1; the ki is 0.140 min⁻¹.
Consider `CCCCCCN1C2C(O)C(O)C(O)C(O)C21` (stereo not drawn), for which the Ki was 50 nM, the ki/Ki is reported as 2.80 μM^−1/min^−1 and the ki is 0.140 min⁻¹.
